{"source": "ChEMBL document CHEMBL4014334", "about": "“BET Bromodomain Inhibitors with One-Step Synthesis Discovered from Virtual Screen” (J Med Chem, 2017)", "tested_on": "MM1.S", "assay": "Cytotoxicity against human MM1S cells assessed as reduction in cell viability after 72 hrs by MTT assay", "format": "functional, cell-based", "note": "pIC50: −log10 of the molar value."}
{"smiles": "CCn1c2c(c(=O)[nH]c1=O)C(c1ccc(C)cc1)C1=C(CN(CCc3ccc(O)cc3)C1=O)N2", "note": "(stereo unspecified)", "values": [{"measurement": "pIC50", "result": 6.34}]}
